# Source: US6750247B2, “Sponge-derived terpenoids and methods of use” (Galileo Laboratories, Inc., priority 2001, dated 2004)
# Experiments:
# [1] = system: primary hippocampal neuronal cells; assay: Hippocampal anoxia-reoxygenation cell death assay; assay type: cell-based, mice; conditions: at dose for max. activity; 5 hr hypoxia, 20-24 hr reoxygenation, live neurons by Cell Tracker Green
# Method: Neurobasal medium (Life Technologies, Rockville, Md.) with 1× B27 supplement (Life Technologies), […], 25 μM L-glutaxnic acid, and 1× Penicillin/Streptomycin was prepared fresh prior to use. Hank's Basic Salt Solution (HBSS, Ca/Mg-free) was prepared by preparing 1× Hanks CMF (Gibco) supplemented with HEPES (10 mM, pH 7.3), sodium bicarbonate (0.35%), 1× Penicillin/Streptomycin, and 1 mM pyruvate. Poly-D-lysine (Sigma, St. Louis, Mo.) was prepared by filtering a 50 μg/ml solution through 0.2 μm filter tubes. Sigmacote (Sigma, St. Louis, Mo.). Plastic Culture Flasks (T75 cm^2) or 12-well cell culture plates were then treated with Poly-D-Lysine (Sigma, St. Louis, Mo.).
# Pregnant female mice (E18-E19) were euthanized with CO2 prior to removal of the uterus, which was then placed in a sterile plastic petri dish. The embryos were removed from the sac, and the embryonic brains removed and immersed in cold (4° C.) Hepes Buffered Salt Solution (HBSS; Ca/Mg free; Life Technologies) in a small petri dish. Hippocampi were then removed from the brains under a dissecting microscope and were placed on a paraffin-covered dish. […]
# The density of cells was determined on a small aliquot of cells using standard counting procedures and correcting for cell viability by trypan blue stain exclusion. […]
# neonatal cardiomyocytes = assay: Myocyte calcium-contractility assay (cardiomyocyte beating anoxia assay); assay type: cell-based, rat; conditions: 16 hr anoxia, 2 hr reoxygenation
# Method: 10× Heart Dissection Solution (HDS) contains the following components (g/l) in tissue culture grade water: NaCl, 68; HEPES, 47.6; NaH2PO4, 2; Glucose, 10; KCl, 4; MgSO4, 1, pH adjusted to 7.4. Prior to filter sterilization of diluted (1× HDS) solution, 10 mg phenol red was added to each 500 milliliters of medium. Transferrin and Bovine Insulin were obtained from Life Technologies, and resuspended at a concentration of 4 mg/ml in tissue culture grade water. DMEM-F12- DMEM/F12, powder, 1:1 containing glutamine and pyridoxine hydrochloride was purchased from Life Technologies. To one liter equivalent of the powder was added 2.43 g of sodium bicarbonate and 10 ml of 100× Penicillin/Streptomycin in 950 ml of tissue culture grade water with stirring. The pH was adjusted to 7.2 with 1M HCl and volume was adjusted to 1 liter. The solution was filter sterilized then 2.5 ml of 4 mg/ml Transferrin, 250 μl 4 mg/ml Insulin and 30.7 mg of bromodeoxyuridine were added. DMEM-F12 was also prepared with 4% FBS for pre-coating the tissue culture plates and initial suspension of the cardiomyocyte pellet. Collagenase solution-49 mg of collagenase was resuspended in 120 ml 1× HDS.
# Tissue culture plasticware was pre-coated with DMEM-F12-4% FBS by incubating 50 μl per well of a 96-well plate. Two-day old rat pups were removed from their mothers and placed in a sterile container. Pups were dipped quickly into 70% alcohol, then decapitated and the body was placed in an empty sterile tissue culture dish. An incision was made starting at the neck and progressing towards the belly, cutting through the sternum. The heart was removed and placed in a tissue culture dishes containing 1× HDS. The atria were trimmed, and the remaining ventricles were placed into a separate tissue culture dish containing 1× HDS, where they were sectioned into 3-4 pieces each. Ventricles were then transferred to a sterile 250 ml glass flask and the 1× HDS was removed. Twenty milliliters of pre-warmed collagenase solution were added to the ventricles, followed by incubation at 37° C. with shaking. […]
substance,measurement,setting,value
"2-[5-hydroxy-4-methyl-6-(2,5,5,8a-tetramethyl-1,4,4a,5,6,7,8,8a-octahydro-naphthalen-1-yl)-hexyl]-2-methyl-2H-chromenyl sodium sulfate [Hipposulfate D (9)]",Percent Activity,[1],No activity at 10 μg/mL
same,Dose for Max. Activity,neonatal cardiomyocytes,75 µg/mL
same,cell viability,neonatal cardiomyocytes,increased cell viability
same,Percent Activity,"neonatal cardiomyocytes; at dose for max. activity, Fluo-4 fluorescence",70%
